Source: patent US7687538B2 (priority 2004, dated 2010)

Sequences of proteins named here, by UniProt entry; tags and fusion partners are left off. A change or cut given only in a name is not applied to a line headed by its entry.
UniProt P41145: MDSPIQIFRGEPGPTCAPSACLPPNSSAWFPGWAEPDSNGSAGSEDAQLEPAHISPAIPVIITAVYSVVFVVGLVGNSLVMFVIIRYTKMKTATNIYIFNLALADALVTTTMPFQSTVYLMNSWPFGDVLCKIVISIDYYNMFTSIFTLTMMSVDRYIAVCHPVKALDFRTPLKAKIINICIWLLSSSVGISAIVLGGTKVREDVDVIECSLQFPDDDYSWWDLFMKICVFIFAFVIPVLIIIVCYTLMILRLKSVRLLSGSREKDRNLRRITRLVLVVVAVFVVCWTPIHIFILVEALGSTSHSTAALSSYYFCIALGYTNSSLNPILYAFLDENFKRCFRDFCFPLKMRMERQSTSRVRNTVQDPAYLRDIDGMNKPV

Target: κ-opioid receptor (KOR) (Homo sapiens, UniProt P41145)
Assay: biochemical
Assay type: binding

COC(=O)[C@@H]1C[C@H](O)C(=O)[C@H]2[C@@]1(C)CC[C@H]1C(=O)O[C@H](c3ccoc3)C[C@]21C [Salvinorin B]
Ki: > 10 µM
